Literature values, collected in patent US20240277641A1, “METHODS FOR TREATING NERVOUS SYSTEM DISORDERS WITH […] AGENTS” (PAXMEDICA, INC., priority 2021, published 2024).

Amino acid sequences for entries named in this document (tags omitted). A change or cut given only in a name is not applied to a line headed by its entry.
UniProt Q99572: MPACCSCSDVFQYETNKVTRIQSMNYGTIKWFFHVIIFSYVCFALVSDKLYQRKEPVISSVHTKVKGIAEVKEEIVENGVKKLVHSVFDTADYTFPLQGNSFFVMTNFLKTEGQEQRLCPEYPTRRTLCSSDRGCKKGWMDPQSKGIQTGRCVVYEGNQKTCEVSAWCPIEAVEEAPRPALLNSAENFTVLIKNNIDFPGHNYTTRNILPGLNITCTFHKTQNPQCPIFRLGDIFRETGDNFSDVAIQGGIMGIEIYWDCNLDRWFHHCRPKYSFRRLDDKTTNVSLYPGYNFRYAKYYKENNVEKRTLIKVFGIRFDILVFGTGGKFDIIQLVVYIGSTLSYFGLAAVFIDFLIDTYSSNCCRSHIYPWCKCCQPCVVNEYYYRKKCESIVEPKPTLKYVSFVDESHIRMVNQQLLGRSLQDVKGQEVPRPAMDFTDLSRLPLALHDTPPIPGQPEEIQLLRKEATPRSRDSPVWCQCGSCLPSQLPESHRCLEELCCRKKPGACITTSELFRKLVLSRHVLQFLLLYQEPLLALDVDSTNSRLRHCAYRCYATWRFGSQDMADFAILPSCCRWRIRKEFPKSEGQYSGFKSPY

Target: human P2X7 receptor (Homo sapiens, UniProt Q99572)
Details: cited from earlier work

Structure (SMILES): C[C@H](N/C(=N/C#N)Nc1cccc2ncccc12)c1ccccc1 [A-804598, N-Cyano-N″-[(1S)-1-phenylethyl]-N′-5-quinolinyl-guanidine]
- pIC50: 7.96

pIC50: −log10 of the molar value.
